From publication PMC5197073 (Theranostics, 2017)

Test system: VEGFR2
Test: VEGFR2 expression in C26 tumors
Assay type: in vivo, mouse
Conditions: C26 model, 100 mg/kg p.o. for two weeks; P=0.0353

Compound: CCN(CC)CCNC(=O)c1c(C)[nH]c(/C=C2\C(=O)Nc3ccc(F)cc32)c1C [sunitinib]
- VEGFR2 expression: suppressed
